{"sequences": {"note": "Amino acid sequences for entries named in this document (tags omitted). Residues count along the entry.", "UniProt A0A2K1YQQ5, 1-524": "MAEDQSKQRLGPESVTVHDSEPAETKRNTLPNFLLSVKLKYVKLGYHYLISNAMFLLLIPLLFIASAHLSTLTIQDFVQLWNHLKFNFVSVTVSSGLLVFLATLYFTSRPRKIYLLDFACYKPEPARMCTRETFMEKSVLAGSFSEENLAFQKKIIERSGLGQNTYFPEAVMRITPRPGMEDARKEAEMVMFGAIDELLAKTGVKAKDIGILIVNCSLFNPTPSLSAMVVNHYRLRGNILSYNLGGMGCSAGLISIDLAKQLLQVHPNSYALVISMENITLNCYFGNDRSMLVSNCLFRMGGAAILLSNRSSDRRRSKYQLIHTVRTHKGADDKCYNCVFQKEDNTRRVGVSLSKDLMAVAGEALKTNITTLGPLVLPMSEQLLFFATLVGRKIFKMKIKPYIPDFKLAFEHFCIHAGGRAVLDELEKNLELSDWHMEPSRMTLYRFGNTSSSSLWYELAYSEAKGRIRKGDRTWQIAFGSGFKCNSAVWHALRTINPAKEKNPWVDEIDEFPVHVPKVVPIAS"}, "source": "paper PMC9574513", "about": "(The Journal of Biological Chemistry, 2022)", "key": {"[1]": {"target": "T1, PtKCS4 (Populus trichocarpa, UniProt U7E0F5)", "T1 sequence (U7E0F5 1-524)": "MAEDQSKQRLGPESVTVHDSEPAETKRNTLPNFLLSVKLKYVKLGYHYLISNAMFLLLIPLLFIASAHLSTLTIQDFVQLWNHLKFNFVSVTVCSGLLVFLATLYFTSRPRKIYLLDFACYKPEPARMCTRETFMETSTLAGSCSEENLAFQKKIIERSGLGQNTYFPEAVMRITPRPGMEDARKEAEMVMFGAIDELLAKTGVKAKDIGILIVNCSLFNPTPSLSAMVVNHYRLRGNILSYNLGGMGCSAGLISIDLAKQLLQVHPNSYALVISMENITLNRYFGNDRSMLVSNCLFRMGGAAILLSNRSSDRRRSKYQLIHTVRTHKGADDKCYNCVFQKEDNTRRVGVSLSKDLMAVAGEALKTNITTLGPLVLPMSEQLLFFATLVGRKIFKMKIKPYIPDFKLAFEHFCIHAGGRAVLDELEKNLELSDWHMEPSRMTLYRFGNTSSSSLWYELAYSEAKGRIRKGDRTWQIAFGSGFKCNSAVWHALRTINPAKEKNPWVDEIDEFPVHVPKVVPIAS", "type": "cell-based", "conditions": "inhibition; 30 °C, 4 days, yeast culture"}, "[2]": {"target": "T2, PtKCS2 (Populus trichocarpa, UniProt A0A2K1YQQ5)", "T2 sequence (A0A2K1YQQ5 1-524)": "T1 sequence (U7E0F5 1-524) with C94S, T137K, T139V, C144F, R283C", "type": "cell-based", "conditions": "inhibition; 30 °C, 4 days, yeast culture"}}, "note": "Substitutions are numbered along the chain they refer to.", "data": [{"smiles": "COP(=S)(OC)SCC(=O)N(c1ccc(Cl)cc1)C(C)C", "note": "[anilofos]", "values": [{"measurement": "proportion of total VLC-FAMEs vs uninhibited control at 2 μM", "setting": "[1]", "result": "whereas alachlor and anilofos slightly reduced activity"}, {"measurement": "proportion of total VLC-FAMEs vs uninhibited control at 2 μM", "setting": "[2]", "result": "whereas alachlor and anilofos slightly reduced activity"}]}]}
